4 compounds from ChEMBL document CHEMBL4270652, “Design, synthesis, and biological activity of substituted 2-amino-5-oxo-5H-chromeno[2,3-b]pyridine-3-carboxylic acid derivatives as inhibitors of the inflammatory kinases TBK1 and IKKε for the treatment of obesity” (Bioorg Med Chem, 2018) can be followed below.

The conditions of the data set: buffer, pH 7.4.
`C=C(C)c1cc2c(=O)c3cc(C(=O)O)c(N)nc3oc2cn1` displayed a Therm_solubility of 372.6 µM.

In turn, `C=C(C)c1ccc2oc3nc(N)c(C(=O)O)cc3c(=O)c2c1` gave a Therm_solubility of 258.8 µM.

Compound `Nc1nc2oc3ccc(N4CCOCC4)cc3c(=O)c2cc1-c1nnn[nH]1` returned a Therm_solubility of 915.7 µM.

For `CC(C)c1ccc2oc3nc(N)c(C(=O)O)cc3c(=O)c2c1` [AMLEXANOX], the Therm_solubility was 171.7 µM.
